Assay results published in patent publication US20110112079A1, “PHOSPHODIESTERASE INHIBITORS” (priority 2008, published 2011).

By UniProt entry, the sequences of proteins in these tests, tags left out. Residues count along the entry.
UniProt P27815, 1-647 isoform P27815-4: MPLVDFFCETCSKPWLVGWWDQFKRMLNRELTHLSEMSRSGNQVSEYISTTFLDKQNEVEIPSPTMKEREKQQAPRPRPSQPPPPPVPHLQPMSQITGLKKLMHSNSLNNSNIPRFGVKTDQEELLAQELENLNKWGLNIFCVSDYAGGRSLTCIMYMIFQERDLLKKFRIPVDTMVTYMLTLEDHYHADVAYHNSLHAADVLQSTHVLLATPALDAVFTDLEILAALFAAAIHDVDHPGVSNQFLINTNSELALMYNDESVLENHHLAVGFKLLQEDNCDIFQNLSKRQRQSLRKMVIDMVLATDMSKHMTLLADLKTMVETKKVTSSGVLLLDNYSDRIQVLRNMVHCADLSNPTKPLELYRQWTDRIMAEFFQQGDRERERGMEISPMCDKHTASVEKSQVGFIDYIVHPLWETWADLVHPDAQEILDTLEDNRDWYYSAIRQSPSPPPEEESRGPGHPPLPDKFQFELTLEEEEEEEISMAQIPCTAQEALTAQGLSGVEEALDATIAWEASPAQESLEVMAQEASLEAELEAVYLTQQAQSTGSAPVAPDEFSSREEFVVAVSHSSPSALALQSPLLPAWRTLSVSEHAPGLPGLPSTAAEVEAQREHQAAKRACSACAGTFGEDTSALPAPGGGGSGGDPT

Biological target: PDE4A1A (Homo sapiens, UniProt P27815)

SMILES: COc1ccc(OC)c(-c2nnc3n2N=C(c2ccc(OC)c(O[C@@H]4CCOC4)c2)CS3)c1 [Compound 10, (R)-3-(2,5-dimethoxyphenyl)-6-(4-methoxy-3-(tetrahydrofuran-3-yloxy)phenyl)-7H-[1,2,4]-triazolo[3,4-b][1,3,4]thiadiazine]
- IC50: 0.26 nM
